System: strains from the 142 strain group and the 180 strain group
Test: Efficiency of mutagenesis (mutation factor, 5-FOA resistance)
Conditions: most effective treatments; frequency of 5-FOA resistant mutants

Structure (SMILES): CN(N=O)C(=N)N[N+](=O)[O-]
- mutation factor: 100

Source: US20120114797A1, “TALAROMYCES STRAINS AND ENZYME COMPOSITIONS” (DSM IP ASSETS B.V., priority 2009, published 2012)
